Reference: ChEMBL document CHEMBL1148605, “Synthesis and preliminary in vitro investigation of bivalent ligands containing homo- and heterodimeric pharmacophores at mu, delta, and kappa opioid receptors” (J Med Chem, 2006)

The chains behind the UniProt entries cited, without tags or fusion partners. Where a name states a change or a piece, a line headed by the entry shows the natural chain unless it says otherwise.
UniProt P41145: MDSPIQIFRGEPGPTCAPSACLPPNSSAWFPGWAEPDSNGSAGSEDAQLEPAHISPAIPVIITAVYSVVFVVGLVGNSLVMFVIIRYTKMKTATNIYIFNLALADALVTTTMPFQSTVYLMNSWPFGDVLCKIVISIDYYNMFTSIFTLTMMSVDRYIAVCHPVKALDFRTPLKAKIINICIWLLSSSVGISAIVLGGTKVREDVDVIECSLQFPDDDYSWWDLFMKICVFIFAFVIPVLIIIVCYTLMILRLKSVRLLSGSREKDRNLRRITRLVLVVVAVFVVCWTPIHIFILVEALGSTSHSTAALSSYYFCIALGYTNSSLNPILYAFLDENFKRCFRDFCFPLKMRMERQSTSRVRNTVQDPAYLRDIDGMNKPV
UniProt P35372, whole entry: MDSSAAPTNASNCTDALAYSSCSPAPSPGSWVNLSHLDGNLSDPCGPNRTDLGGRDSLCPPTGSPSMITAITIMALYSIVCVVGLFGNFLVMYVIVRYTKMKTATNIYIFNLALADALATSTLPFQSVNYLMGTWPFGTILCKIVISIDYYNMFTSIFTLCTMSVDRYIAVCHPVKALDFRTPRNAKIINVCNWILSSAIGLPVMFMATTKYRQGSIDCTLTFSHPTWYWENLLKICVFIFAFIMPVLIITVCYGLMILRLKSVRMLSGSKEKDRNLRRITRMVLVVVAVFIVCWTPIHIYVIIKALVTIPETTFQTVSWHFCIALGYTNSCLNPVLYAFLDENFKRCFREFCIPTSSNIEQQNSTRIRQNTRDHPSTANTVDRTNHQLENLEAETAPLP

Columns and labels:
[1] = biological target: T1, Kappa-type opioid receptor (Homo sapiens, UniProt P41145); assay: Functional activity at human kappa opioid receptor expressed CHO cells by [35S]GTPgammaS binding assay; format: cell-based; conditions: filed as agonist
Summary of the method: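 Membranes from CHO cells stably expressing human κ receptor (15 µg protein/tube), 12 compound concentrations, 60 min at 30 °C in Tris-HCl/MgCl2/NaCl/EGTA buffer pH 7.4 with 3 µM GDP and […] [35S]GTPγS. Filtration count, expressed as % stimulation over basal, giving Emax and EC50. […] At least 3 experiments in triplicate.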

[2] = biological target: T1, Kappa-type opioid receptor; assay: biochemical; format: cell-based, CHO
Mu-type opioid receptor [3] = biological target: T2, Mu-type opioid receptor (Homo sapiens, UniProt P35372); assay: biochemical; format: cell-based, CHO
Mu-type opioid receptor [4] = biological target: T2, Mu-type opioid receptor; assay: Activity at human mu opioid receptor expressed in CHO cells by [35S]GTP-gamma-S binding assay; format: functional, cell-based

Oc1ccc2c(c1)[C@@]13CCCC[C@H]1[C@@H](C2)N(CC1CC1)CC3
Activity [1]: Agonist

Oc1ccc2c(c1)[C@]13CCCCC1[C@H](C2)N(CC1CC1)CC3 (single isomer, unassigned; (+))
Ki [2]: 480 nM

Oc1ccc2c(c1)[C@]13CCCCC1[C@H](C2)N(CC1CCC1)CC3 (single isomer, unassigned; (+))
Ki (Mu-type opioid receptor [3]): 60 nM

Oc1ccc2c(c1)[C@@]13CCCC[C@H]1[C@@H](C2)N(CC1CCC1)CC3 [BUTORPHAN]
IC50 (Mu-type opioid receptor [4]): 20 nM
